Key:
[1] = substrate: CC(=O)O[C@H]1C[C@H]([C@H](C)[C@H]2C[C@]3(C)O[C@]3(C)[C@H](O)O2)[C@@]2(C)CC[C@H]3[C@@H](C[C@@H]4O[C@]45[C@@H](O)C=CC(=O)[C@]35C)[C@H]12; conditions: Homo sapiens; 20 uM
[2] = substrate: CC(=O)O[C@H]1C[C@H]([C@H](C)[C@H]2C[C@]3(C)O[C@]3(C)[C@H](O)O2)[C@@]2(C)CC[C@H]3[C@@H](C[C@@H]4O[C@]45[C@@H](O)C=CC(=O)[C@]35C)[C@H]12; conditions: Homo sapiens; 2.5 uM
[3] = substrate: CC(=O)O[C@H]1C[C@H]([C@H](C)[C@H]2C[C@]3(C)O[C@]3(C)[C@H](O)O2)[C@@]2(C)CC[C@H]3[C@@H](C[C@@H]4O[C@]45[C@@H](O)C=CC(=O)[C@]35C)[C@H]12; conditions: Homo sapiens; 5 uM
[4] = substrate: CC(=O)O[C@H]1C[C@H]([C@H](C)[C@H]2C[C@]3(C)O[C@]3(C)[C@H](O)O2)[C@@]2(C)CC[C@H]3[C@@H](C[C@@H]4O[C@]45[C@@H](O)C=CC(=O)[C@]35C)[C@H]12; conditions: Homo sapiens; 10 uM
[5] = substrate: CC(=O)O[C@H]1C[C@H]([C@H](C)[C@H]2C[C@]3(C)O[C@]3(C)[C@H](O)O2)[C@@]2(C)CC[C@H]3[C@@H](C[C@@H]4O[C@]45[C@@H](O)C=CC(=O)[C@]35C)[C@H]12; conditions: Homo sapiens; 5 uM; remark: listed apart in the source
[6] = substrate: CC(=O)O[C@H]1C[C@H]([C@H](C)[C@H]2C[C@]3(C)O[C@]3(C)[C@H](O)O2)[C@@]2(C)CC[C@H]3[C@@H](C[C@@H]4O[C@]45[C@@H](O)C=CC(=O)[C@]35C)[C@H]12; conditions: Homo sapiens; 2.5 uM; remark: listed apart in the source
[7] = substrate: CC(=O)O[C@H]1C[C@H]([C@H](C)[C@H]2C[C@]3(C)O[C@]3(C)[C@H](O)O2)[C@@]2(C)CC[C@H]3[C@@H](C[C@@H]4O[C@]45[C@@H](O)C=CC(=O)[C@]35C)[C@H]12; conditions: Homo sapiens; 20 uM; remark: listed apart in the source
[8] = substrate: CC(=O)O[C@H]1C[C@H]([C@H](C)[C@H]2C[C@]3(C)O[C@]3(C)[C@H](O)O2)[C@@]2(C)CC[C@H]3[C@@H](C[C@@H]4O[C@]45[C@@H](O)C=CC(=O)[C@]35C)[C@H]12; conditions: Homo sapiens; 10 uM; remark: listed apart in the source

B1: Glutaminase kidney isoform, mitochondrial (Homo sapiens), O94925 (protein)
chain: MMRLRGSGMLRDLLLRSPAGVSATLRRAQPLVTLCRRPRGGGRPAAGPAAAARLHPWWGGGGWPAEPLARGLSSSPSEILQELGKGSTHPQPGVSPPAAPAAPGPKDGPGETDAFGNSEGKELVASGENKIKQGLLPSLEDLLFYTIAEGQEKIPVHKFITALKSTGLRTSDPRLKECMDMLRLTLQTTSDGVMLDKDLFKKCVQSNIVLLTQAFRRKFVIPDFMSFTSHIDELYESAKKQSGGKVADYIPQLAKFSPDLWGVSVCTVDGQRHSTGDTKVPFCLQSCVKPLKYAIAVNDLGTEYVHRYVGKEPSGLRFNKLFLNEDDKPHNPMVNAGAIVVTSLIKQGVNNAEKFDYVMQFLNKMAGNEYVGFSNATFQSERESGDRNFAIGYYLKEKKCFPEGTDMVGILDFYFQLCSIEVTCESASVMAATLANGGFCPITGERVLSPEAVRNTLSLMHSCGMYDFSGQFAFHVGLPAKSGVAGGILLVVPNVMGMMCWSPPLDKMGNSVKGIHFCHDLVSLCNFHNYDNLRHFAKKLDPRREGGDQRVKSVINLLFAAYTGDVSALRRFALSAMDMEQRDYDSRTALHVAAAEGHVEVVKFLLEACKVNPFPKDRWNNTPMDEALHFGHHDVFKILQEYQVQYTPQGDSDNGKENQTVHKNLDGLL
Vmax (optical density/minute) [1]: 0.0232
Vmax (optical density/minute) [2]: 0.0619
Km [3]: 2.73 mM
Km [4]: 3.59 mM
Vmax (optical density/minute) [5]: 0.0529
Km [6]: 2.58 mM
Km [7]: 5.83 mM
Vmax (optical density/minute) [8]: 0.0403

Source: ChEMBL document CHEMBL3994651, “Physapubescin, a natural withanolide as a kidney-type glutaminase (KGA) inhibitor” (Bioorg Med Chem Lett, 2017)
